Values quoted from earlier work in paper PMC7406630, “A new ^68Ga-labeled somatostatin analog containing two iodo-amino acids for dual somatostatin receptor subtype 2 and 5 targeting” (EJNMMI Research, 2020).

System: SST2
Conditions: read-out: IC50 for SST2; cited from earlier work

SMILES: CC(C)[C@@H]1NC(=O)[C@H](CCCCN)NC(=O)[C@@H](Cc2c[nH]c3ccccc23)NC(=O)[C@H](Cc2ccc(O)c(I)c2)NC(=O)[C@@H](NC(=O)[C@H](N)Cc2ccc(N)c(I)c2)CSSC[C@@H](C(=O)N[C@H](C(N)=O)[C@@H](C)O)NC1=O
- IC50: 0.6 nM
